Here are results for 99 compounds from PubChem BioAssay AID624288 (National Center for Advancing Translational Sciences (NCATS), 2012).

The list shows a part of the results, in another mix than the full data. Inconclusive results are not listed. Calls of active or inactive are those of the source. Calls follow the shape of the full dose curve; cell line not stated here.
% is scaled to controls: 0 for no effect and ±100 for the full control effect.

This experiment is described as follows: qHTS for Antagonists of gsp, the Etiologic Mutation Responsible for Fibrous Dysplasia/McCune-Albright Syndrome: qHTS. Also: nearly all actives have a fitted effect of over 65% in size. Particulars: gsp-mutant cells, cAMP HTRF, 30 min; at 76.9 µM (top of the series) unless noted. For orientation: In qHTS, concentration-response curves come from the screen itself.
For `CN(C(=O)Cc1ccc(Cl)c(Cl)c1)[C@H]1CC[C@@]2(CCCO2)C[C@@H]1N1CCCC1`, the activity change, negative = inhibition is inactive: 5.03%.

In the case of `CC1=NCCc2c1[nH]c1ccccc21.O=[N+]([O-])c1cc([N+](=O)[O-])c(O)c([N+](=O)[O-])c1`, the activity change, negative = inhibition was inactive: 4.62%. The result for `O=[N+]([O-])c1ccc2c(c1)nnn2O` reads inactive: 10.6%; that for `O=P(Nc1nccs1)(c1ccccc1)c1nc2ccccc2s1` (centres undefined), inactive: 7.57%. Under `O=P(Nc1nccs1)(Oc1ccccc1)Oc1ccccc1` stands inactive: -4.58%. The result for `CCOP1(=S)c2c(C)nn(CCC#N)c2N=C(c2ccccc2F)N1C` (centres undefined) reads inactive: -1.09%; that for `CS(=O)(=O)c1cc([N+](=O)[O-])c2no[n+]([O-])c2c1`, inactive: -1.95%; that for `O=C(O)COc1ccc([As](=O)(O)O)cc1[N+](=O)[O-]`, inactive: 10%. With `Nc1ccccc1[As](=O)(O)c1ccccc1`, the activity change, negative = inhibition is inactive: 3.98%.

Take `Nc1cccc2c([As](=O)(O)O)cccc12`: the activity change, negative = inhibition was inactive: 0.397%. Under `CP(=O)(Nc1cccc(Br)c1)Oc1ccccc1` (centres undefined) stands inactive: 11.2%; under `Cc1cc(C)cc(OP(C)(=O)Nc2ccccn2)c1` (centres undefined), inactive: 0.813%; under `CCCOP(=S)(Nc1nc(N)cc(=O)[nH]1)OCCC`, inactive: -4.97%.

As to `Cc1ccc(C)c(NP(C)(=O)Oc2ccccc2)c1` (centres undefined), the activity change, negative = inhibition was inactive: -0.81%. As for `CCOP(=O)(Nc1cccc2ccccc12)OCC`, the activity change, negative = inhibition is inactive: 5.59%. For the compound `O=C(OC1CN2CCC1CC2)c1ccc(Cl)cc1` (centres undefined), the activity change, negative = inhibition is inactive: 5.69%. The result for `COc1ccccc1OP(C)(=O)Nc1cccc(Br)c1` (centres undefined) reads inactive: -9.2%. As to `COc1cc(C(=O)NCC2(N3CCOCC3)CCCCC2)cc(Cl)c1OC(C)C`, the activity change, negative = inhibition was inactive: -15.1%. `O=[As](O)(O)c1cccnc1`: the activity change, negative = inhibition is inactive: 5.88%. The result for `Cc1cc(C)cc(OP(C)(=O)Nc2ccc(C)cc2C)c1` (centres undefined) reads inactive: 1.98%; that for `O=[As](O)(c1cccc(O)c1)c1cccc(O)c1`, inactive: 3.84%. Under `Cc1cccc(OCC(=O)OC2CN3CCC2CC3)c1` (centres undefined) stands inactive: 5.4%. For the compound `CCOC(=O)c1ccc(NP(C)(=O)Oc2cc(C)cc(C)c2)cc1` (centres undefined), the activity change, negative = inhibition is inactive: 7.73%.

As to `C[C@@H]1C=CCP(=O)(Oc2ccccc2)O1` (some centres undefined), the activity change, negative = inhibition is inactive: 2.92%. Under `C[C@H]1OP(=O)(Oc2ccccc2)C[C@@H]2O[C@@H]21` (some centres undefined) stands inactive: 7.54%; under `O=C(OCCN1CCN(CCOCc2ccccc2)CC1)C(O)(c1ccccc1)c1ccccc1`, inactive: -10.9%.

As for `Cc1ccccc1CN(C)C(=O)COC(=O)C(O)(c1ccccc1)c1ccccc1`, the activity change, negative = inhibition is inactive: -7.13%.

`COC(=O)C1(C)COP(=O)(NCc2ccccc2)OC1` (centres undefined): the activity change, negative = inhibition is inactive: 1.87%. Take `N#C/C(=C\c1ccc(N(CCBr)CCBr)cc1)C(N)=O`: the activity change, negative = inhibition is inactive: -3.18%. Under `CC(=O)c1ccc(N2CC2c2ccncc2)cc1` (centres undefined) stands inactive: 7.34%; under `CC(=O)Nc1ccc(Oc2c([N+](=O)[O-])cc([N+](=O)[O-])cc2[N+](=O)[O-])cc1`, inactive: -18.6%. The result for `CC(=O)Nc1ccc([As](=O)(O)O)c(O)c1` reads inactive: 8.33%; that for `CCOc1ccc(C2=NCC(CBr)S2)cc1` (centres undefined), inactive: 8.56%; that for `O=P1(Nc2nc3ccc(Cl)cc3s2)COc2ccccc2O1` (centres undefined), inactive: 16.7%.

Consider `CC(C)c1ccc(OP(C)(=O)Nc2ccc(SC(F)(F)F)cc2)cc1` (centres undefined), for which the activity change, negative = inhibition was inactive: 6.95%.

For the compound `CP(=O)(Nc1ccccc1F)Oc1ccccc1` (centres undefined), the activity change, negative = inhibition was inactive: 4.49%. On to `CCc1cc(O)c([N+](=O)[O-])c(C)c1[N+](=O)[O-]`, for which the activity change, negative = inhibition was inactive: 0.488%. For the compound `CCC(=O)N1C2C3N(C(=O)CC)C1C1N(C(=O)CC)C(C(N1C(=O)CC)N3C(=O)CC)N2C(=O)CC`, the activity change, negative = inhibition was inactive: -21.7%. Under `CCN(CC)CCCOC(=O)C(O)(c1ccccc1)C1CCCCC1` (centres undefined) stands inactive: -1.36%. On to `O=C(OC1CN2CCC1CC2)c1ccccc1` (centres undefined), for which the activity change, negative = inhibition is inactive: 1.78%. The result for `CC(=O)NC(SC(=S)N(CC(C)C)CC(C)C)C(Cl)(Cl)Cl` (centres undefined) reads inactive: -8.26%; that for `Cc1ccc(OP(=O)(Nc2ccccn2)Oc2ccc(C)cc2)cc1`, inactive: -11.1%.

`COC(=O)c1cc2c(s1)N=C(c1ccccc1)N(C)P2(=O)N1CCOCC1` (centres undefined): the activity change, negative = inhibition is inactive: -2.82%. The result for `Cc1c([N+](=O)[O-])cc([N+](=O)[O-])c(Br)c1[N+](=O)[O-]` reads inactive: -9.12%; that for `CN(C)C(=O)Oc1noc2ccccc12`, inactive: 9.92%.

As for `CCCCCOc1ccc(NP(C)(=O)Oc2ccc(Cl)cc2Cl)cc1` (centres undefined), the activity change, negative = inhibition was inactive: 3.36%. The result for `Cc1ccccc1OP(=O)(Nc1ccccn1)Oc1ccccc1C` reads inactive: -20.3%; that for `CC(NC(=O)COC(=O)C(O)(c1ccccc1)c1ccccc1)c1ccccc1` (centres undefined), inactive: -19.9%.

Consider `CP(=O)(Nc1ccccc1)Oc1ccc(F)cc1` (centres undefined), for which the activity change, negative = inhibition was inactive: 36.1%. Regarding `Cc1ccc(NP(=O)(Oc2cccc(C)c2)Oc2cccc(C)c2)nc1`, the activity change, negative = inhibition is inactive: 2.66%. The result for `c1ccc(-c2nn[nH]n2)c(-c2nn[nH]n2)c1` reads inactive: 1.73%; that for `O=C(NC1CCS(=O)(=O)C1)NP(=S)(Oc1ccccc1)Oc1ccccc1` (centres undefined), inactive: -22.2%; that for `CCNC(=S)/N=C(\N)N[N+](=O)[O-]`, inactive: 7.2%. Turning to `CCOC(=O)c1ccc(NP(C)(=O)Oc2ccc(F)cc2)cc1` (centres undefined), the activity change, negative = inhibition was inactive: 10.4%. Regarding `O=P1(N(CCCl)CCCl)OCCC2CCCCN21` (centres undefined), the activity change, negative = inhibition was inactive: 3.67%.

As for `Cc1cc(-c2cccc3ccccc23)c(C)cn1.O=[N+]([O-])c1cc([N+](=O)[O-])c(O)c([N+](=O)[O-])c1`, the activity change, negative = inhibition was inactive: 7.79%. Turning to `O=[As](O)(c1ccccc1)c1ccc(O)cc1`, the activity change, negative = inhibition is inactive: -12.9%. The result for `O=[N+]([O-])c1ccc(OP2(=O)COCCO2)cc1` (centres undefined) reads inactive: 7.25%; that for `CC(=O)NC(SC(=S)N(C)C)C(Cl)(Cl)Cl` (centres undefined), inactive: 10.2%; that for `O=[N+]([O-])c1ncn(CCn2cnc([N+](=O)[O-])n2)n1`, inactive: -4.49%.

As for `O=C(OC1CN2CCC1CC2)c1cccc(Cl)c1` (centres undefined), the activity change, negative = inhibition is inactive: 7.52%. For the compound `Nc1ccc([As](=O)(O)c2ccc([N+](=O)[O-])cc2)cc1`, the activity change, negative = inhibition is inactive: 7.6%. Under `C(Cc1nn[nH]n1)Cc1nn[nH]n1` stands inactive: 11.1%. Take `Cc1c(C(c2ccc3c(c2)OCO3)c2c(C)n(C)n(-c3ccccc3)c2=O)c(=O)n(-c2ccccc2)n1C.O=[N+]([O-])c1cc([N+](=O)[O-])c(O)c([N+](=O)[O-])c1`: the activity change, negative = inhibition was inactive: 8.21%. As for `CN(C)C1(CNC(=O)c2ccc(Cl)c(S(N)(=O)=O)c2)CCCCC1`, the activity change, negative = inhibition was inactive: 14.3%. Under `O=P(Nc1ccccn1)(c1ccc(Br)cc1)c1ccc(Br)cc1` stands inactive: -11.3%. Under `COc1ccc(N)c([N+](=O)[O-])c1[N+](=O)[O-]` stands inactive: 1.79%; under `COc1ccc(OP(C)(=O)Nc2cccc(Br)c2)cc1` (centres undefined), inactive: 2.9%; under `COc1ccc(NP(C)(=O)Oc2ccccc2OC)cc1` (centres undefined), inactive: 13.6%. Under `C[C@H]1OP(=O)(Oc2ccccc2)[C@H](O)[C@H](O)[C@H]1N=[N+]=[N-]` (some centres undefined) stands inactive: 3.82%; under `O=P(Nc1nc2ccccc2s1)(c1ccccc1)c1ccccc1`, inactive: -4.55%. Take `CN(C)CCOC(=O)C(O)(c1ccccc1)C1CCCCC1` (centres undefined): the activity change, negative = inhibition was inactive: 8.28%. Under `CP(=O)(Nc1ccc2c(c1)OCCO2)Oc1ccccc1` (centres undefined) stands inactive: 3.94% [at 15.4 µM]. The result for `Cc1ccccc1NP(C)(=O)Nc1ccccc1C` reads inactive: -4.89%; that for `O=P(Nc1nccs1)(c1ccccc1)c1ccccc1`, inactive: 5.75%.

Take `CC(C)C(=O)NC(Sc1ccccc1)C(Cl)(Cl)Cl` (centres undefined): the activity change, negative = inhibition was inactive: -12.2%. For the compound `CP(=O)(Nc1ccc(SC(F)(F)F)cc1)Oc1ccc(F)cc1` (centres undefined), the activity change, negative = inhibition was inactive: 21.1%. The result for `c1nnnn1CCn1cnnn1` reads inactive: 12%. Under `CCOP(C)(=S)SCC(=O)NC(C)(CC)C(=O)O` (centres undefined) stands inactive: 13.7%; under `CP(=O)(Nc1ccc(Cl)cc1)Oc1ccc(F)cc1` (centres undefined), inactive: 9.15%; under `CCN(/C(=N/P(=O)(N1CCOCC1)N1CCOCC1)N1CCOCC1)c1ccc(OC)cc1`, inactive: 3.18%. Consider `C[N+]1=C2C=CC=CC=C2SC12C([N+](=O)[O-])=CC([N+](=O)[O-])=C[C-]2[N+](=O)[O-]` (centres undefined), for which the activity change, negative = inhibition was inactive: -8.72%. In the case of `Nc1ccc([As](=O)(O)c2ccc(N)cc2)cc1`, the activity change, negative = inhibition was inactive: 16.1%. On to `CC(C)(C)c1ccc(OP(C)(=O)O)cc1`, for which the activity change, negative = inhibition is inactive: 2.14%. The result for `COc1ccccc1OP(C)(=O)Nc1ccccc1Br` (centres undefined) reads inactive: 10.6%.

In the case of `CC1CCN(C(=O)Oc2c(Cl)cc(Cl)c3cccnc23)CC1`, the activity change, negative = inhibition is inactive: 0.529%. Under `CN(C)C(=O)OCCc1n(C)cc[n+]1C` stands inactive: 17.4%; under `CC(C)=N/N=C(\N)N[N+](=O)[O-]`, inactive: 7.95%. Under `CN(C)C(=O)c1c([N+](=O)[O-])cc([N+](=O)[O-])cc1[N+](=O)[O-]` stands inactive: 4.11%. Under `COc1ccc(C2=NCC(CBr)S2)cc1` (centres undefined) stands inactive: -1.15%. As to `COc1ccc(OP(C)(=O)Nc2ccc(Br)cc2)cc1` (centres undefined), the activity change, negative = inhibition is inactive: 3.66%. The result for `CCN(CC)CC(O)COC(=O)C(O)(c1ccccc1)C1CCCCC1` (centres undefined) reads inactive: 12.7%; that for `CCc1nc2c(n1)c1c(non1O)c1c2no[n+]1[O-]`, inactive: -15.6%; that for `CCc1ccc(OP(C)(=O)Nc2cccnc2)cc1` (centres undefined), inactive: 1.46%. On to `Cc1ccc(NP(=O)(Oc2ccccc2)Oc2ccccc2)nc1`, for which the activity change, negative = inhibition is inactive: -8.1%.

`CP(=O)(Oc1ccccc1)N1CCOC1=O` (centres undefined): the activity change, negative = inhibition was inactive: 4.35%. As for `O=C(OCCCN1CCCC1)C(O)(c1ccccc1)C1CCCCC1` (centres undefined), the activity change, negative = inhibition is inactive: 15.2%. On to `COc1ccccc1OP(C)(=O)Nc1c(C)n(C)n(-c2ccccc2)c1=O` (centres undefined), for which the activity change, negative = inhibition is inactive: 4.65%. Under `CC(=O)N1C2C3N(C(C)=O)C1C1N(C(C)=O)C(C(N1C(C)=O)N3C(C)=O)N2C(C)=O` stands inactive: 1.18%.
